The data set is described as follows: Urinary excretion of flavanol metabolites (0-24 h) after a single serving of soluble cocoa product (HPLC-ESI-QToF-MS). As to conditions: mean ± SD, n = 13; for Excreted in urine, Basal: basal urine (−2–0 h, before intake); for Excreted in urine, Total: 24 h urine. The class given is in vivo, human. The method, then: They were non-smoker, non-vegetarian, non-pregnant women, who were not taking any medication or nutritional supplements, and were not suffering from any chronic pathology or gastrointestinal disorder. The sample size was estimated attending to similar previous bioavailability studies. The volunteers gave their informed consent prior to participation.
The present randomized, single-blind study was carried out at the Human Nutrition Unit (HNU) of the Institute of Food Science, Technology and Nutrition (ICTAN). Volunteers attended the HNU on two days, separated by two weeks. Three days previous to each visit, participants were instructed not to consume cocoa products (chocolate, soluble cocoa, etc.), juices, tea, wine, grape must, oranges, tangerines, apples, grapes, strawberries or other berries, beets, onions, soybeans and soy derivatives.
On each intervention day, volunteers arrived at the HNU after an overnight fast. […] The soluble cocoa products, either 15 g of CC or 25 g CC-PP, were dissolved in 200 mL of semi-skimmed milk following manufacturer’s preparation instructions. Plasma was separated by centrifugation (10 min, 3000 rpm, 4 °C) and stored at −80 °C until further analysis. […] A polyphenol-free breakfast, lunch and afternoon snack were provided 2 h, 4 h, and 8 h after consumption of cocoa products, and water and isotonic beverages were available ad libitum.
Urine samples were diluted with an equivalent volume of Milli-Q water (50%) and centrifuged at 14000 rpm (10 min, 4 °C). Supernatants were filtered (0.45 μm pore-size cellulose-acetate membrane filters) and a 5 µL aliquot was directly injected into the LC-ESI-QToF-MS equipment.
The test samples, either 30 μL of the plasma extract or 5 μL of diluted urine, were injected and separated using a mobile phase consisting of Milli-Q water (phase A) and acetonitrile (phase B), both containing 0.1% formic acid, at a flow rate of 0.3 mL/min. The mobile phase was initially programmed with 90% of solvent A and 10% of B. The elution program increased to 30% of solvent B in 10 min. Then, the initial conditions (10% solvent B) were recovered in 5 min and maintained for 5 min.
Due to the lack of standards for certain phase II metabolites, they were tentatively quantified using the calibration curves of their corresponding phenolic precursors. […] The rest of microbial metabolites identified, derivatives of hydroxyphenylpropionic, hydroxyphenylacetic, hydroxybenzoic and hippuric acids, were quantified using their respective commercially available standards. Urine concentration of the excreted metabolites was normalized by the volume excreted in each studied interval. […] Calibration curves were freshly prepared in a pool of both plasma and urine due to matrix effects.
Statistical analyses were carried out using the program SPSS (version 23.0, SPSS, Inc., IBM Company, New York, NY, USA). Significant differences between metabolites excreted in urine after consumption of CC and CC-PP cocoa products were evaluated based on non-parametric Wilcoxon test (p < 0.05).

Setting [1] is: after CC-PP (68.25 mg flavanols).

This is an account of results in article PMC6683251, “Flavanol Bioavailability in Two Cocoa Products with Different Phenolic Content. A Comparative Study in Humans” (Nutrients, 2019).

Regarding “5-Phenyl-γ-valerolactone-methoxy-glucuronide [PVL-methoxy-glucuronide]”, the “Excreted in urine, Basal” value (CC intervention) is “<L.Q”. In addition, the “Excreted in urine, Basal” value (CC-PP intervention) is recorded as “<L.Q”. For the setting “after CC (19.80 mg flavanols)”, the “Excreted in urine, Total” value is recorded as 0.111 ± 0.039 µmol; the “Excreted in urine, 0–4 h” value is on record as “<L.Q”; the “Excreted in urine, 4–8 h” value turned out to be 0.111 ± 0.039 µmol; the “Excreted in urine, 8–12 h” value is “<L.Q”. Under “after CC (19.80 mg flavanols)”, the “Excreted in urine, 12–24 h” value is listed as “<L.Q”. Moreover, under setting [1], the “Excreted in urine, Total” value is listed as 0.555 ± 0.134 µmol; the “Excreted in urine, 0–4 h” value was “<L.Q”; the “Excreted in urine, 4–8 h” value is given as 0.340 ± 0.074 µmol; the “Excreted in urine, 8–12 h” value worked out at 0.084 ± 0.014 µmol. Further, the “Excreted in urine, 12–24 h” value under setting [1] came out at 0.131 ± 0.046 µmol.
In the case of “5-Phenyl-γ-valerolactone-methoxy-sulfate [PVL-methoxy-sulfate]”, the “Excreted in urine, Basal” value (CC intervention) is listed as “<L.Q”. Under “after CC (19.80 mg flavanols)”, the “Excreted in urine, Total” value stood at 0.085 ± 0.031 µmol; the “Excreted in urine, 4–8 h” value is reported as 0.085 ± 0.031 µmol; the “Excreted in urine, 8–12 h” value was “<L.Q”; the “Excreted in urine, 12–24 h” value was “<L.Q”. In addition, under setting [1], the “Excreted in urine, Total” value is 0.177 ± 0.047 µmol; the “Excreted in urine, 0–4 h” value is on record as “<L.Q”; the “Excreted in urine, 4–8 h” value amounted to 0.177 ± 0.036 µmol; the “Excreted in urine, 8–12 h” value is reported as “<L.Q”. For the same compound, the “Excreted in urine, 12–24 h” value under setting [1] is on record as “<L.Q”.
As to `O=C1CCC(Cc2ccc(O[C@@H]3O[C@H](C(=O)O)[C@@H](O)[C@H](O)[C@H]3O)c(O)c2)O1` (stereo partly drawn) [HPVL-4′-glucuronide, 5-(3′-Hydroxyphenyl)-γ-valerolactone-4′-glucuronide], for the setting “after CC (19.80 mg flavanols)”, the “Excreted in urine, Total” value is 0.111 ± 0.049 µmol and the “Excreted in urine, 4–8 h” value amounted to 0.111 ± 0.049 µmol.
